The text below walks through data of PubChem BioAssay AID602310 (National Center for Advancing Translational Sciences (NCATS), 2012).

Sequences of proteins named here, by UniProt entry; tags and fusion partners are left off. A change or cut given only in a name is not applied to a line headed by its entry.
UniProt Q9HC16: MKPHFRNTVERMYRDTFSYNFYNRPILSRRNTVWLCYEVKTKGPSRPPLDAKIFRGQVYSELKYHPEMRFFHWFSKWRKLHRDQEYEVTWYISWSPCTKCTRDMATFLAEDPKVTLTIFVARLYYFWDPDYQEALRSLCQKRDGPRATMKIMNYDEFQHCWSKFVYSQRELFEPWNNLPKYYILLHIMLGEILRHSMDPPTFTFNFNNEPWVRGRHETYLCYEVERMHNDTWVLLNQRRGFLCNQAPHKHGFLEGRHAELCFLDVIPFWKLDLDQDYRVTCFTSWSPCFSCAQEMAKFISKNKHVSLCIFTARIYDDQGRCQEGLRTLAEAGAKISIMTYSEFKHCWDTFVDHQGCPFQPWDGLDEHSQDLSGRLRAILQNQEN

This is a selection; strong and weak results do not stand in their true shares. The source made the active and inactive calls. Calls come from the whole dose curve; as a rule, active = well fitted curve in the direction sought with a large enough effect; inconclusive = small, poorly fitted or top-dose-only effect; inactive = flat fitted curve, though single readings scatter.
% is set by controls: 0 for no effect and ±100 for the full control effect.

For this assay, the target named is DNA dC->dU-editing enzyme APOBEC-3G (Homo sapiens) (UniProt Q9HC16). As to the kind of experiment: qHTS for Inhibitors of Vif-A3G Interactions: qHTS.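 Note: hits raise eYFP signal because A3G escapes Vif-driven loss; nearly all actives have a fitted effect of over 60% in size.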 The following applies: HeLa A3G-eYFP + Vif (tagged APOBEC3G with the HIV-1 protein that degrades it), YFP fluorescence, overnight; at 46.1 µM (top of the series). From the text:
The recent discovery and characterization of host restriction factors, which provide a potent defense to invading retroviruses, has provided new targets for antiviral drug development. APOBEC3G (A3G) and APOBEC3F (A3F) are potent cytidine deaminases that block HIV-1 replication; HIV-1 expresses the Vif protein, which counteracts A3G and A3F by binding to them and inducing their proteasomal degradation. The Vif-A3G and Vif-A3F interactions provide two potential targets for development of small molecules which can interfere with the ability of Vif to degrade A3G or A3F. […] To identify inhibitors that can interfere with Vif mediated degradation of A3G and A3F, we have developed Hela cell lines that stably express A3G or A3F tagged with eYFP at the C-terminal end (A3G-eYFP or A3F-eYFP, respectively) and Vif. In the absence of an inhibitor, Vif induces degradation of A3G-eYFP and A3F-eYFP, and the cells are not fluorescent. In the presence of an inhibitor, it is expected that Vif will be unable to degrade A3G-eYFP and/or A3F-eYFP, resulting in an increase in yellow fluorescence. In this assays Vif A3G was screened against the Molecular Library Small Molecule Repository (MLSMR). NIH Chemical Genomics Center [NCGC] NIH Molecular Libraries Probe Centers Network [MLPCN] MLPCN Grant: MH093245 Assay Submitter (PI): Vinay Pathak, National Cancer Institute
5 uL of 700 cells/well of A3G-YFP cells are dispensed into black, clear bottom plates. The plates are incubated overnight at 37 deg C. 23 nL of compounds are added by pintool. The plates are incubated overnight at 37 deg C and then read on the TTP Acumen (Ex 488/ Em 500-530).
As for `C[N+]1=C2C=CC=CC=C2SC12C([N+](=O)[O-])=CC([N+](=O)[O-])=C[C-]2[N+](=O)[O-]` (configuration not stated), the activity, negative = active was inactive: -15.9%.

Regarding `CCN(/C(=N/P(=O)(N1CCOCC1)N1CCOCC1)N1CCOCC1)c1ccc(OC)cc1`, the activity, negative = active was inactive: -4.19%.

In the case of `CC(C)=N/N=C(\N)N[N+](=O)[O-]`, the activity, negative = active was inactive: 0.408%.

In the case of `CC(C)c1nc(Nc2ccccc2)n(P(=O)(N(C)C)N(C)C)n1`, the activity, negative = active was inactive: 3.7%.

As to `COc1cc([N+](=O)[O-])c([N+](=O)[O-])cc1OC`, the activity, negative = active is inactive: -1.12%.

Turning to `CN(C)C(=O)OCCc1n(C)cc[n+]1C`, the activity, negative = active was inactive: -0.294%.

Take `c1cc(-c2nn[nH]n2)ccc1-c1nn[nH]n1`: the activity, negative = active is inactive: -0.142%.

Turning to `CC1CCN(C(=O)Oc2c(Cl)cc(Cl)c3cccnc23)CC1`, the activity, negative = active is inactive: -4.34%.

Take `O=P(Nc1nccs1)(c1ccccc1)c1ccccc1`: the activity, negative = active is inactive: -2.46%.

Turning to `CC(C)C(=O)NC(Sc1ccccc1)C(Cl)(Cl)Cl` (configuration not stated), the activity, negative = active is inactive: 0.471%.

As for `c1nnnn1CCn1cnnn1`, the activity, negative = active was inactive: 0.294%.

For the compound `COc1cccc([N+](=O)[O-])c1[N+](=O)[O-]`, the activity, negative = active was inactive: -11.6%.

Consider `Nc1ccc(CCCCOc2ccccc2)cc1`, for which the activity, negative = active is inactive: -3.33%.

As for `COc1ccc(N)c([N+](=O)[O-])c1[N+](=O)[O-]`, the activity, negative = active was inactive: -6.06%.

Regarding `CN(C)C1(CNC(=O)c2ccc(Cl)c(S(N)(=O)=O)c2)CCCCC1`, the activity, negative = active was inactive: 1.09%.

With `O=P(Nc1ccccn1)(c1ccc(Br)cc1)c1ccc(Br)cc1`, the activity, negative = active is inactive: -10.4%.

For `O=P(Nc1nc2ccccc2s1)(c1ccccc1)c1ccccc1`, the activity, negative = active is inactive: 3.51%.

For the compound `C[C@H]1OP(=O)(Oc2ccccc2)[C@H](O)[C@H](O)[C@H]1N=[N+]=[N-]` (some centres not stated), the activity, negative = active was inactive: 4.26%.

As for `O=[N+]([O-])c1ncn(CCn2cnc([N+](=O)[O-])n2)n1`, the activity, negative = active was inactive: -0.764%.

As for `CC(=O)NC(SC(=S)N(C)C)C(Cl)(Cl)Cl` (configuration not stated), the activity, negative = active was inactive: 1.1%.

As to `O=[N+]([O-])c1ccc(O)c(/C=N/Nc2ccc([N+](=O)[O-])cc2[N+](=O)[O-])c1`, the activity, negative = active was inactive: -1.09%.

For `O=[As](O)(c1ccccc1)c1ccc(O)cc1`, the activity, negative = active is inactive: -0.0982%.

`Nc1ccc([As](=O)(O)c2ccc([N+](=O)[O-])cc2)cc1`: the activity, negative = active was inactive: -0.346%.

As to `C(Cc1nn[nH]n1)Cc1nn[nH]n1`, the activity, negative = active was inactive: -0.444%.

As for `O=C(OC1CN2CCC1CC2)c1cccc(Cl)c1` (configuration not stated), the activity, negative = active was inactive: 0.769%.

`O=C(NC1CCS(=O)(=O)C1)NP(=S)(Oc1ccccc1)Oc1ccccc1` (configuration not stated): the activity, negative = active is inactive: -1.06%.

Turning to `CCNC(=S)/N=C(\N)N[N+](=O)[O-]`, the activity, negative = active is inactive: -0.0422%.

As to `c1ccc(-c2nn[nH]n2)c(-c2nn[nH]n2)c1`, the activity, negative = active was inactive: 1.27%.

For `O=[N+]([O-])c1cc([N+](=O)[O-])c2nc[nH]c2c1`, the activity, negative = active was inactive: 2.47%.

For the compound `Cc1ccc(NP(=O)(Oc2cccc(C)c2)Oc2cccc(C)c2)nc1`, the activity, negative = active is inactive: -2.97%.

`O=P1(N(CCCl)CCCl)OCCC2CCCCN21` (configuration not stated): the activity, negative = active is inactive: -0.61%.

As for `COC(=O)c1cc2c(s1)N=C(c1ccccc1)N(C)P2(=O)N1CCOCC1` (configuration not stated), the activity, negative = active was inactive: -3.92%.

`Cc1ccc(OP(=O)(Nc2ccccn2)Oc2ccc(C)cc2)cc1`: the activity, negative = active is inactive: -2.67%.

For `CC(=O)NC(SC(=S)N(CC(C)C)CC(C)C)C(Cl)(Cl)Cl` (configuration not stated), the activity, negative = active was inactive: -3.46%.

Regarding `O=C(OC1CN2CCC1CC2)c1ccccc1` (configuration not stated), the activity, negative = active was inactive: 0.943%.

Take `CCC(=O)N1C2C3N(C(=O)CC)C1C1N(C(=O)CC)C(C(N1C(=O)CC)N3C(=O)CC)N2C(=O)CC`: the activity, negative = active is inactive: -0.643%.

Regarding `Cc1ccccc1OP(=O)(Nc1ccccn1)Oc1ccccc1C`, the activity, negative = active is inactive: -20%.

For `CC(NC(=O)COC(=O)C(O)(c1ccccc1)c1ccccc1)c1ccccc1` (configuration not stated), the activity, negative = active was inactive: -2.59%.

In the case of `CN(C)C(=O)Oc1noc2ccccc12`, the activity, negative = active is inactive: 1.77%.

Regarding `O=c1c2cc([N+](=O)[O-])ccc2[nH]c2c([N+](=O)[O-])cc([N+](=O)[O-])cc12`, the activity, negative = active was inactive: 1.47%.

On to `O=P1(Nc2nc3ccc(Cl)cc3s2)COc2ccccc2O1` (configuration not stated), for which the activity, negative = active is inactive: -7.67%.

As to `CCOc1ccc(C2=NCC(CBr)S2)cc1` (configuration not stated), the activity, negative = active is inactive: 3.47%.

With `CCc1cc(O)c([N+](=O)[O-])c(C)c1[N+](=O)[O-]`, the activity, negative = active was inactive: 2.39%.

Regarding `CC(C)(C)C(=O)NC(Sc1ccccc1)C(Cl)(Cl)Cl` (configuration not stated), the activity, negative = active is inactive: -7.48%.

For `N#C/C(=C\c1ccc(N(CCBr)CCBr)cc1)C(N)=O`, the activity, negative = active was inactive: -5.05%.

Consider `CC(=O)c1ccc(N2CC2c2ccncc2)cc1` (configuration not stated), for which the activity, negative = active is inactive: -0.382%.

For `COC(=O)C1(C)COP(=O)(NCc2ccccc2)OC1` (configuration not stated), the activity, negative = active is inactive: 1.34%.

As to `Cc1ccccc1CN(C)C(=O)COC(=O)C(O)(c1ccccc1)c1ccccc1`, the activity, negative = active was inactive: 2.09%.

For `C[C@@H]1C=CCP(=O)(Oc2ccccc2)O1` (some centres not stated), the activity, negative = active is inactive: 5.51%.

On to `C[C@H]1OP(=O)(Oc2ccccc2)C[C@@H]2O[C@@H]21` (some centres not stated), for which the activity, negative = active was inactive: -1.62%.

With `CC(=O)Nc1ccc([As](=O)(O)O)c(O)c1`, the activity, negative = active was inactive: 3.04%.

For the compound `CC(=O)Nc1ccc(Oc2c([N+](=O)[O-])cc([N+](=O)[O-])cc2[N+](=O)[O-])cc1`, the activity, negative = active was inactive: -0.712%.
